{"sequences": {"note": "Amino acid sequences for entries named in this document (tags omitted).", "UniProt P20393, whole entry, looked up": "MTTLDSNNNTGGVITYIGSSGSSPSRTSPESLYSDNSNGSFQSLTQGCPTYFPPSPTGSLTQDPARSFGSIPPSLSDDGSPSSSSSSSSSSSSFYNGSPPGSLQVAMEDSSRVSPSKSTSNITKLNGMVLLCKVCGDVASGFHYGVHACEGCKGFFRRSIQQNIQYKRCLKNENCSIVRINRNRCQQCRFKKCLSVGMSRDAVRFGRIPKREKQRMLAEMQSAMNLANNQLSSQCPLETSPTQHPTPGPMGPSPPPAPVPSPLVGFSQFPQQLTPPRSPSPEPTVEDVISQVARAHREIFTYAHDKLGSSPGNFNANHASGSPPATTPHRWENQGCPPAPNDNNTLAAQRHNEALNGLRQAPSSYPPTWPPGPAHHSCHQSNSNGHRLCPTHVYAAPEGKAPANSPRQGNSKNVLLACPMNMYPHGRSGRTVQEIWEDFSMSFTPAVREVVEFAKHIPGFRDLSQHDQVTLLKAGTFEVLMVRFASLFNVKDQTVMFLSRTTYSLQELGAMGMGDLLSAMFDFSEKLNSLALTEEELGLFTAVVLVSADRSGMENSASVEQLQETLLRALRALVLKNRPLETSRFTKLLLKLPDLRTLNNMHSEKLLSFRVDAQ"}, "source": "PubChem BioAssay AID1259318", "about": "(Sanford-Burnham Center for Chemical Genomics, 2017)", "note": "Only a part is listed here, and it is no random draw. Calls of active or inactive are those of the source.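 How the source made its calls: active means activity above about 14% (limit read from the data; passing the limit was not always enough); inactive means the rest.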"}
{"target": "Nuclear receptor subfamily 1 group D member 1 (Homo sapiens) (UniProt P20393)", "assay": "modulators of Rev-erb alpha DNA binding, primary screen, biochemical, FITC-DNA, fluorescence polarization, uHTS (AID 1259318);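 further: 0% = DMSO wells with 35 nM protein and 100% = DMSO wells with 750 nM protein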", "settings": "Rev-erbα–FITC-DNA binding, 90 min, at 10 µM, stronger effect = higher value"}
{"smiles": "NC(=O)Nc1ccc([As](=O)(O)O)cc1", "activity": "inactive: -1.17%"}
